Measured values as given in paper PMC10917784.
Where “and” joins values, the source holds several entries; their conditions need not be identical. Equal entries are not always repeated.

The chains behind the UniProt entries cited, without tags or fusion partners. Residues count along the entry.
UniProt P08637, 17-208: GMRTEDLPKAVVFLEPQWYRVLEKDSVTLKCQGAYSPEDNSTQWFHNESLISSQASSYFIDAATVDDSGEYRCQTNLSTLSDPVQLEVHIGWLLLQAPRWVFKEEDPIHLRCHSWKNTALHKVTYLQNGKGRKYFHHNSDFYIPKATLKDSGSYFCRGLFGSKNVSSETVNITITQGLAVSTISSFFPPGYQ

Molecular target: trastuzumab
Experiment: SPR; antibody constructs captured on a Protein L Series S CM5 chip, Fc receptors flowed over; Biacore 8K+, 25 °C, neutral pH; 1:1 binding model (FcγRI and FcγRIIIa); three replicates

## his-tagged human FcγRIIIa ECD (from UniProt P08637 17-208) (receptor)
  Kd: 146 nM and 142 nM and 144 nM
